Columns and labels:
[1] = biological target: Sodium-dependent dopamine transporter (Rattus norvegicus, UniProt P23977); test: Displacement of [3H]WIN-35428 from DAT in Sprague-Dawley rat brain; format: tissue-based
Procedure, shortened: (§1)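 Male Sprague-Dawley rats (200-250 g); striata, midbrain or frontal cortex tissue used for competition binding. Final radioligand concentrations were 0.5 nM for DAT, 0.2 nM [³H]paroxetine for SERT and 0.5 nM [³H]nisoxetine for NET.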

Protein sequences, listed by entry. Tags and fused reporters are not part of them.
UniProt P23977, whole entry: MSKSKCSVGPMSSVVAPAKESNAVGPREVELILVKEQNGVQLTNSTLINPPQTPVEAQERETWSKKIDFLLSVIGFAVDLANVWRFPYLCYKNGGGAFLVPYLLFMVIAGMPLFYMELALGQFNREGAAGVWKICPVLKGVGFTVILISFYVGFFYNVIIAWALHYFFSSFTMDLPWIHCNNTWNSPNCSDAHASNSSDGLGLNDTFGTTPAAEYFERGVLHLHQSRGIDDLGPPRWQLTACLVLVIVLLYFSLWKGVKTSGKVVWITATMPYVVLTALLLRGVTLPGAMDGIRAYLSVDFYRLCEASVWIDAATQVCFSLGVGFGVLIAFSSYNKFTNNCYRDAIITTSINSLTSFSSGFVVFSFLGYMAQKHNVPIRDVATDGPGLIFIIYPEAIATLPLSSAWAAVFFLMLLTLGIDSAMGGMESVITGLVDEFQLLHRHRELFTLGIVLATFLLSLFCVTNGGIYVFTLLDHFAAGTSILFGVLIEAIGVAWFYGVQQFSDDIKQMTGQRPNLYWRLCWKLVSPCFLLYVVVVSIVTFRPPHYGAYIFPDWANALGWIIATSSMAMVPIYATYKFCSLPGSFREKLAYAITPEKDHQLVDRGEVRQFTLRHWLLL
UniProt Q01959, whole entry: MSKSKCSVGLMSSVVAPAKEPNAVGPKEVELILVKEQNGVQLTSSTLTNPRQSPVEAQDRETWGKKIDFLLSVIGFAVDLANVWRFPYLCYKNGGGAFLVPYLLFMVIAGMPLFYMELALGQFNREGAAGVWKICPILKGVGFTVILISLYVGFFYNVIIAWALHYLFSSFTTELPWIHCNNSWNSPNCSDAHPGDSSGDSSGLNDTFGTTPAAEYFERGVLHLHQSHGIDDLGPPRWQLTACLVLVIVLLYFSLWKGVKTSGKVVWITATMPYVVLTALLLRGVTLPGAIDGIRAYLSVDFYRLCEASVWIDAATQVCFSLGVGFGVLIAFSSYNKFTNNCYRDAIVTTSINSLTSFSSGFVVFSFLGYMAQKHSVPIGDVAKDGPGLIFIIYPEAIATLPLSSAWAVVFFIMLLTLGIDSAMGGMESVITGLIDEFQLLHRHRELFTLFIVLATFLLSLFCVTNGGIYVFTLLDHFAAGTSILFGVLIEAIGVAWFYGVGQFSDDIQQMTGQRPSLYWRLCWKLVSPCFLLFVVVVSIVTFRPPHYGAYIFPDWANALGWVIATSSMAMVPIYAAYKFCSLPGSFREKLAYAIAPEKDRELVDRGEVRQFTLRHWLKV
UniProt P31652, whole entry: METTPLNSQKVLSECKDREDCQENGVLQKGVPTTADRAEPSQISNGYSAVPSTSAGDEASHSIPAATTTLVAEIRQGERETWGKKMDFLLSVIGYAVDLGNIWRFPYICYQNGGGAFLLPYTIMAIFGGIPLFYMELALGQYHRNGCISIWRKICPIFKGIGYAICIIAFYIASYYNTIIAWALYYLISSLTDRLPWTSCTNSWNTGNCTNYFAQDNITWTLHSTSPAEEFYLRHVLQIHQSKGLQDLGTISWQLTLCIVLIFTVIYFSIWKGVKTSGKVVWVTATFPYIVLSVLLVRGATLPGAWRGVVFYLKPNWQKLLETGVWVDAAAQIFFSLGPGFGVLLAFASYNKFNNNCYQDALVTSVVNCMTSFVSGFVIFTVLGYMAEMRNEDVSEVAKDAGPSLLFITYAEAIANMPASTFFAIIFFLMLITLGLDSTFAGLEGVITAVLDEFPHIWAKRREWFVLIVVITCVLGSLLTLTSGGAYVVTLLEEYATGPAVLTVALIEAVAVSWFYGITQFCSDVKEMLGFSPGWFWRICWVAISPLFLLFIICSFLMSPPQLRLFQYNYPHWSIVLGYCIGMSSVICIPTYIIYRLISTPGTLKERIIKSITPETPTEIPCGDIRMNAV

[2] = biological target: Sodium-dependent dopamine transporter (Homo sapiens, UniProt Q01959); test: Displacement of [125I]RTI-55 from human DAT expressed in HEK cells after 90 mins; format: cell-based, HEK293
Procedure, shortened: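 Competition binding on human DAT or SERT stably expressed in HEK293 cells, using the nonselective radioligand [¹²⁵I]RTI-55.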

[3] = biological target: Sodium-dependent serotonin transporter (Rattus norvegicus, UniProt P31652); test: Displacement of [3H]paroxetine from SERT in Sprague-Dawley rat brain; format: tissue-based; procedure, shortened: as §1

| Structure (SMILES) | IC50 [1] | Ki [2] | Ki [3] |
| --- | --- | --- | --- |
| CN1[C@H]2CC[C@@H]1[C@@H](c1ncc(-c3ccc(Br)cc3)s1)[C@@H](c1ccc(Cl)cc1)C2 | 107 nM | 35 nM |  |
| COC(=O)[C@H]1[C@@H](c2ccccc2)C[C@@H]2CC[C@H]1N2C [TROPARIL] |  |  | 1900 nM |
